The target of the assay is untagged Q330X NEMO purified from insect cells (human) (UniProt Q9Y6K9). Kind of assay: other fluorescence titration; steady-state intrinsic fluorescence (excitation 295 nm, emission 333 nm); NEMO fixed at 15 µM or Q330X NEMO at 5 µM, 4×M1-ub varied 0-30 µM (NEMO) or up to 70 µM (Q330X NEMO); 25°C, 10 mM Tris–HCl pH 7.4; fit to an equivalent and independent binding site model.

Sequences of proteins named here, by UniProt entry; tags and fusion partners are left off. A change or cut given only in a name is not applied to a line headed by its entry. Residues count along the entry.
UniProt Q9Y6K9, 2-329: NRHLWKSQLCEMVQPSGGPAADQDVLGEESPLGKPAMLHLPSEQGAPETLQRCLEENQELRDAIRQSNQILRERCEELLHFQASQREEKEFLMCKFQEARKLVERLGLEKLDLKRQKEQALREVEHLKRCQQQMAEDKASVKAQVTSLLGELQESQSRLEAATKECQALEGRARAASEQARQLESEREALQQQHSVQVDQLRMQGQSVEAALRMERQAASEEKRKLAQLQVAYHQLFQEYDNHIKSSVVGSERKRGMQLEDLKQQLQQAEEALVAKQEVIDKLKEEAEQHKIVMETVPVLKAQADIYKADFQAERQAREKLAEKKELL

This note sets out measurements from paper PMC9889916.

“recombinant M1-linked tetra-ubiquitin (from UniProt P0CG48 1-76; P0CG48 1-76; P0CG48 1-76; P0CG48 1-76) (other; other documents disagree on this pair)”: the Ka is 200000 M⁻¹ and the stoichiometry N (mol 4×M1-ub per mol Q330X NEMO) came to 1.
